Antibody variant affinities, Ab-14 heavy chain, assay 1

Target peptide (SARS-CoV-2 spike, HR2 region): PDVDLGDISGINAS

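The starting antibody came from a phage panning campaign against this peptide. In library AAYL49, one, two or three CDR residues were substituted; doubles and triples were drawn at random. The assay is AlphaSeq: two haploid yeast populations carry antibody and antigen on their surface. Pairs that bind mate more often; barcode pairs of the diploids are counted by sequencing. Read counts were normalised to the haploid input and turned into Kd by a linear fit to BCL2-family pairs of known affinity, for each replicate. Each pool was mated in three replicate cultures.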

The variants keep the light chain, the linker and the frameworks of Ab-14 (scFv order VH, a 15-residue (Gly4Ser)3 linker, VL).
VH: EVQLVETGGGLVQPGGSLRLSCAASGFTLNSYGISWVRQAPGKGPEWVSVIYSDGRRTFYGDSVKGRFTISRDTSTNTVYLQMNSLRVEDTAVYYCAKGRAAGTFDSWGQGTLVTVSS
VL: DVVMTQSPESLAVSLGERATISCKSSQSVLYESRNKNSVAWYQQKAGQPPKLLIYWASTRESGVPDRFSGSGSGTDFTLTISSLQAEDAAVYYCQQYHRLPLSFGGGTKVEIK

Variants are written as CDR1, CDR2 and CDR3 of the heavy chain (limits as in the source). Parent: GFTLNSYGIS, VIYSDGRRTFYGDSVK, GRAAGTFDS.
All variants listed here change Y32 of the VH, counted from its first residue.
Each Kd is an estimate from the mating assay, the geometric mean of the replicates in which the pair was seen; lower is stronger.
"no signal" means that the variant was in the library but no mating with the target was seen in any replicate; the authors take this as a sign of poor binding, and no number exists.
Parent in this assay: reference entry 4.4 nM, copy in this library 13 µM (one replicate of three).

CDR-H1,CDR-H2,CDR-H3,apparent Kd,detected
GDTLNSTGIS,VIYCDGRRTFYGDSVK,GRAAGTFDS,350 µM,2 of 3
GFTLNSNYIS,VIYSDGRRTFYGDSVK,ERAAGTFDS,31 µM,2 of 3
GFTLNSTGIS,VIYSDGRRTFYGDSVE,GRAAGTFDS,190 µM,1 of 3
GFALNSRGIS,AIYSDGRRTFYGDSVK,GRAAGTFDS,no signal,0 of 3
GFTLNSDGIS,VIYSDGRRTFSGDSVF,GRAAGTFDS,11 µM,1 of 3
GFTLNSAGIS,VIYSDCRRTFYGDSVK,GRAAGTFYS,33 µM,2 of 3
GHTLNSGGIS,VDYSDGRRTFYGDSVK,GRAAGTFDS,34 µM,2 of 3
GFTLNSFGIS,VIYSDGRRTYYGDSVK,GRAAGTFIS,7.9 µM,1 of 3
GFTENSRGIS,VIYSHGRRTFYGDSVK,GRAAGTFDS,930 nM,1 of 3
GFTLNTQGIS,VIYSDGRRTFYGDSVK,GRAAGTFDS,45 nM,3 of 3
GFTLNSEGIS,VIYDDGRRTFHGDSVK,GRAAGTFDS,99 µM,2 of 3
GFTLNSHGIS,VIYSDGRRFFTGDSVK,GRAAGTFDS,32 µM,2 of 3
GFQLNSCGIH,VIYSDGRRTFYGDSVK,GRAAGTFDS,1.7 µM,3 of 3
GFTLNSGGIS,VIYSDGRRTFSGDSVK,GRTAGTFDS,no signal,0 of 3
GFTLNSHGIS,VIYSDGRNTFYGDSVK,GRAAGTFDC,3.2 µM,2 of 3
GFTLNEMGIS,VIYSDGRRTFYGQSVK,GRAAGTFDS,19 nM,2 of 3
GFSLNSHGIS,VIYSDGRRTFYGDSCK,GRAAGTFDS,6.9 µM,3 of 3

Top 2 of the variants detected in all replicates, tightest first:

CDR-H1	CDR-H2	CDR-H3	apparent Kd	detected
GFTLNTQGIS	VIYSDGRRTFYGDSVK	GRAAGTFDS	45 nM	3 of 3
GFQLNSCGIH	VIYSDGRRTFYGDSVK	GRAAGTFDS	1.7 µM	3 of 3

As a blank, each scFv also met three strains without target: over library AAYL49, 15% of these pairings were detected, typically at 11 µM and seldom below 680 nM.

Source: Engelhart et al. 2022 (doi:10.1038/s41597-022-01779-4), MIT Lincoln Laboratory and A-Alpha Bio; data file from the FLAb repository.